The source of these data is PMC10986131.

One test deals with GFP-Mdm2. In words: co-immunoprecipitation with immunoblot densitometry. The following applies: chain shown with the change, HEK293 cells expressing D3R, n = 3, read off a plot. Background: In western blotting, separated proteins are transferred to a membrane and probed.
Test [1] addresses T1, TRAF6 (as co-transfected with FLAG-AKT in Fig. 2B), Q9Y4K3.
T1 chain: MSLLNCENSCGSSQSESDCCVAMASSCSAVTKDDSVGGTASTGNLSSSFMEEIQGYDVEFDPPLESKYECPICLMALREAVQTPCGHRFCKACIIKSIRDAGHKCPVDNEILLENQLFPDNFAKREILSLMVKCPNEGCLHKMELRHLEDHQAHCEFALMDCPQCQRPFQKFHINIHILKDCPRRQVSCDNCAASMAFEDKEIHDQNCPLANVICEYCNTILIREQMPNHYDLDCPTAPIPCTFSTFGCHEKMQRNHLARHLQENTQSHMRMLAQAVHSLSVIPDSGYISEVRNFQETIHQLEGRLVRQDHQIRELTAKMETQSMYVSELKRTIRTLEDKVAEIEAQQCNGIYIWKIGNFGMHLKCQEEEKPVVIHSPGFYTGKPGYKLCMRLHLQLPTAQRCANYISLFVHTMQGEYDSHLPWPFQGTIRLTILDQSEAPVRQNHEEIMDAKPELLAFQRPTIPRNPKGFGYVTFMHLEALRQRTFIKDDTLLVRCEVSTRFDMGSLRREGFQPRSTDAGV
Briefly: co-immunoprecipitation (anti-FLAG beads) with immunoblot densitometry. The settings on record: chain shown with the change, HEK293 cells expressing D3R (1.9 ~ 2.1 pmol/mg protein), n = 3, read off a plot.

B1: FLAG-WT-AKT, P31749 K8R; K14R (protein)
chain: MSDVAIVREGWLHRRGEYIKTWRPRYFLLKNDGTFIGYKERPQDVDQREAPLNNFSVAQCQLMKTERPRPNTFIIRCLQWTTVIERTFHVETPEEREEWTTAIQTVADGLKKQEEEEMDFRSGSPSDNSGAEEMEVSLAKPKHRVTMNEFEYLKLLGKGTFGKVILVKEKATGRYYAMKILKKEVIVAKDEVAHTLTENRVLQNSRHPFLTALKYSFQTHDRLCFVMEYANGGELFFHLSRERVFSEDRARFYGAEIVSALDYLHSEKNVVYRDLKLENLMLDKDGHIKITDFGLCKEGIKDGATMKTFCGTPEYLAPEVLEDNDYGRAVDWWGLGVVMYEMMCGRLPFYNQDHEKLFELILMEEIRFPRTLGPEAKSLLSGLLKKDPKQRLGGGSEDAKEIMQHRFFAGIVWQHVYEKKLSPPFKPQVTSETDTRYFDEEFTAQMITITPPDQDDSMECVDSERRPHFPQFSYSASGTA
With B1, the other: Fold increase in AKT bound to Mdm2 stood at 1.2 fold with GFP-Mdm2 (Quin '+' (100 nM Quin for 5 min, single treatment), parent: est. 1.4); 1.2 fold with GFP-Mdm2 (Quin 'w/+' (100 nM Quin for 5 min, washed, and re-challenged), parent: est. 3.0). Further, the other: Fold increase in AKT bound to TRAF6 in test [1] (Quin '+' (100 nM Quin for 5 min, single treatment), parent: est. 2.1) turned out to be 2.1 fold; in test [1] (Quin '-' (no quinpirole), parent: est. 1.0), 2.5 fold; in test [1] (Quin 'w/+' (100 nM Quin for 5 min, desensitization protocol: washed and re-challenged), parent: est. 7.5), 2.5 fold.
